The values below are quoted from earlier work in patent publication US8323615B2, “Methods of processing multi-phasic dispersions” (Baxter International Inc., priority 2008, dated 2012).

One data set deals with rats. The settings on record: oral, all at once (acute toxicity), minimal amount reported in the literature.
For data set [1] the following is noted: parts per million by weight; ambient temperature such as 20-25° C.

Consider `FC(F)(F)c1ccccc1` [1,1,1-trifluorotoluene], for which the LD50 in the data set on rats was 15 g/kg body weight.

On to `CC(F)(Cl)Cl` [Genesolv ® 2000 HFC-141b], for which the “Sol. (solubility of water in the liquid)” value in data set [1] was 420 ppm.
